Patent publication US20170065730A1, “COMPOSITION FOR IMAGING ATHEROSCLEROSIS AND METHOD FOR DIAGNOSING ATHEROSCLEROSIS BY USING SAME” (priority 2014, published 2017)

Tested on: aortic atherosclerotic lesion
Conditions: rabbit, in vivo

SUV Abdominal aorta: 0.88 ± 0.88 | SUV Bone marrow: 0.78 ± 0.24 | SUV Brain: 1.92 ± 0.55 | SUV Heart: 1.58 ± 0.33 | SUV IVC: 0.96 ± 0.37 | SUV Liver: 1.80 ± 0.50 | SUV Spleen: 0.97 ± 0.41 | SUV Thoracic aorta: 0.96 ± 0.94 | TBR of SUV Abdominal aorta/IVC: 0.93 ± 0.27 | TBR of SUV Abdominal aorta/brain: 0.46 ± 0.13 | TBR of SUV Abdominal aorta/heart: 0.53 ± 0.10 | TBR of SUV Thoracic aorta/IVC: 0.93 ± 0.16 | TBR of SUV Thoracic aorta/brain: 0.46 ± 0.09 | TBR of SUV Thoracic aorta/heart: 0.53 ± 0.10 | entry into the brain parenchyma through the blood-brain barrier: enters the brain parenchyma | uptake in liver and bone marrow tissues in PET/CT image: increased
Substance: fluorine-18 fluorodeoxyglucose [^18F-FDG]
usefulness in detecting atherosclerotic lesions in the brain tissue: not useful
